According to US6750268B2, “Bonding composition” (Kuraray Co., Ltd., priority 1999, dated 2004):

Assay: Miscibility of film-forming agent with physiological saline solution (uniformity of solution)
Assay type: physicochemical
Conditions: film-forming agent mixed with same weight of physiological saline solution 9 g/L, room temperature, shaken 20 seconds, macroscopically checked

Substance	Solubility (Uniformity of Reference Solutions)
dimethacrylate of ethylene glycol nona-mer [Example 9G]	no dissolved
dimethacrylate of ethylene glycol tetradeca-mer [Example 14G]	dissolved
methacrylate of methoxypolyethylene glycol 200 [PE-200-OMe]	not dissolved
monomethacrylate of ethylene glycol tetra- or penta-mer [HO-4ED]	dissolved
